The results in this text go back to patent US4822408A, “Alkyl-, alkenyl- and alkynylnitroguanidines as cytokinin plant growth regulants” (American Cyanamid Company, priority 1987, dated 1989).

This experiment relates to cucumber cotyledon. In words: Cucumber cotyledon greening bioassay for relative cytokinin activity. Type of experiment: cell-based, Cucumis sativa var. National Pickling. Particulars: Dose giving 50% of the maximum possible enhancement, as judged by a standard; 0.06-64 ppm typically tested; inactive if more than 200 ppm.

Some compounds may have been tested in ways that are not shown here.

Turning to `CNC(=N)N[N+](=O)[O-]`, the ED50 worked out at 113 ppm.
